One assay has as its target hCB2 receptor (Homo sapiens, UniProt P34972). Nature of the assay: agonist-stimulated [35S]GTPγS binding, hCB2 HEK293 membranes. In kind it is biochemical. (In general: GTPγS resists hydrolysis and so accumulates on activated G proteins.)
The subject of a further assay is CB1. The conditions noted are these: ref Gamage et al., 2018; cited from earlier work.

Sequences of proteins named here, by UniProt entry; tags and fusion partners are left off.
UniProt P34972, whole entry: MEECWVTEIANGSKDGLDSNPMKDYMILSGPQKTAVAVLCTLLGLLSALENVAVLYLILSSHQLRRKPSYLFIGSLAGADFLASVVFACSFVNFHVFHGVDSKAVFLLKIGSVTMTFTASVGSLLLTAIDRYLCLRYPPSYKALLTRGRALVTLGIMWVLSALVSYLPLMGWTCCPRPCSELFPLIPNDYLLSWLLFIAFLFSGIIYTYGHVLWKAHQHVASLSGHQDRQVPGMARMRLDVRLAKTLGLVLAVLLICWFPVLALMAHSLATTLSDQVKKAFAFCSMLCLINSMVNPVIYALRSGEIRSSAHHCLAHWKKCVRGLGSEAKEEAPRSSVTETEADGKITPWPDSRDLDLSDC

A word on the EC50: it is the concentration at which the effect is half-maximal. Take `CCCCC/C=C\C/C=C\C/C=C\C/C=C\CCCC(=O)NCCO` [anandamide]: the EC50 on hCB2 receptor is 160 nM.

As for `Cc1c(C(=O)NN2CCCCC2)nn(-c2ccc(Cl)cc2Cl)c1-c1ccc(Cl)cc1` [rimonabant, reference compound], the “affinity higher than EG-018” value with CB1 was “approximately 20 fold”.
